Earlier results, collected in publication PMC7680388 (Cell chemical biology, 2020).

By UniProt entry, the sequences of proteins in these tests, tags left out. Where a name states a change or a piece, a line headed by the entry shows the natural chain unless it says otherwise.
UniProt Q16186: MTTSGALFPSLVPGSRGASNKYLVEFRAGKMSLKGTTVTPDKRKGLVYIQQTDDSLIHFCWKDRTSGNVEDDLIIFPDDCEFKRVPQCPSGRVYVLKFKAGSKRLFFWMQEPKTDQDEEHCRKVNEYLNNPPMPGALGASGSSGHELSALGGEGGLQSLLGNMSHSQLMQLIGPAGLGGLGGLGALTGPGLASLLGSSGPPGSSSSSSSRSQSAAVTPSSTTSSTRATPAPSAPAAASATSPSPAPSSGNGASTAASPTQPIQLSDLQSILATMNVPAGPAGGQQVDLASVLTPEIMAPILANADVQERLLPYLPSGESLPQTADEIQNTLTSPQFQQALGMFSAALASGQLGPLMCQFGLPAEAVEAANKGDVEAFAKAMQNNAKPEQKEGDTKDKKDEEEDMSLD

Target: Rpn13 (Homo sapiens, UniProt Q16186)
Settings: read-out: affinity of Rpn13 for Ubiquitin; ref Hill et al 2017; cited from earlier work

Ubiquitin
Kd: ~40 µM
